Measured values from PubChem BioAssay (NCI).
Some tests of the compounds listed are not included; inactive here does not mean inactive elsewhere.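 Following 48 hours of exposure in 96-well plates, responses at five concentrations were used to interpolate endpoints linearly. GI50 = concentration required for 50% inhibition of growth.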

Legend:
Assay in all cases: NCI tumour cell line growth inhibition, 48 h; in the data active = GI50 below about 0.43 µM; inactive = the rest
786-0 renal = tested on: 786-0 renal
A498 renal = tested on: A498 renal
A549 NSCLC = tested on: A549 NSCLC
ACHN renal = tested on: ACHN renal
BT-549 breast = tested on: BT-549 breast
CAKI-1 renal = tested on: CAKI-1 renal
CCRF-CEM leukemia = tested on: CCRF-CEM leukemia
COLO 205 colon = tested on: COLO 205 colon
DU-145 prostate = tested on: DU-145 prostate
EKVX NSCLC = tested on: EKVX NSCLC
HCT-116 colon = tested on: HCT-116 colon
HCT-15 colon = tested on: HCT-15 colon
HL-60(TB) leukemia = tested on: HL-60(TB) leukemia
HOP-62 NSCLC = tested on: HOP-62 NSCLC
HOP-92 NSCLC = tested on: HOP-92 NSCLC
HS 578T breast = tested on: HS 578T breast
HT29 colon = tested on: HT29 colon
IGROV1 ovarian = tested on: IGROV1 ovarian
K-562 leukemia = tested on: K-562 leukemia
LOX IMVI melanoma = tested on: LOX IMVI melanoma
M14 melanoma = tested on: M14 melanoma
MALME-3M melanoma = tested on: MALME-3M melanoma
MCF7 breast = tested on: MCF7 breast
MDA-MB-231 breast = tested on: MDA-MB-231 breast
MDA-MB-435 = tested on: MDA-MB-435
MDA-N = tested on: MDA-N
MOLT-4 leukemia = tested on: MOLT-4 leukemia
NCI-H226 lung = tested on: NCI-H226 lung
NCI-H23 lung = tested on: NCI-H23 lung
NCI-H322M lung = tested on: NCI-H322M lung
NCI-H522 lung = tested on: NCI-H522 lung
NCI/ADR-RES ovarian = tested on: NCI/ADR-RES ovarian
OVCAR-3 ovarian = tested on: OVCAR-3 ovarian
OVCAR-4 ovarian = tested on: OVCAR-4 ovarian
OVCAR-5 ovarian = tested on: OVCAR-5 ovarian
OVCAR-8 ovarian = tested on: OVCAR-8 ovarian
PC-3 prostate = tested on: PC-3 prostate
RPMI-8226 leukemia = tested on: RPMI-8226 leukemia
RXF 393 renal = tested on: RXF 393 renal
SF-268 CNS = tested on: SF-268 CNS
SF-295 CNS = tested on: SF-295 CNS
SF-539 CNS = tested on: SF-539 CNS
SK-MEL-2 melanoma = tested on: SK-MEL-2 melanoma
SK-MEL-28 melanoma = tested on: SK-MEL-28 melanoma
SK-MEL-5 melanoma = tested on: SK-MEL-5 melanoma
SK-OV-3 ovarian = tested on: SK-OV-3 ovarian
SN12C renal = tested on: SN12C renal
SNB-19 CNS = tested on: SNB-19 CNS
SNB-75 CNS = tested on: SNB-75 CNS
SR leukemia = tested on: SR leukemia
T-47D breast = tested on: T-47D breast
TK-10 renal = tested on: TK-10 renal
U251 CNS = tested on: U251 CNS
UACC-257 melanoma = tested on: UACC-257 melanoma
UACC-62 melanoma = tested on: UACC-62 melanoma
UO-31 renal = tested on: UO-31 renal

Measured: GI50

O=C(OCCN1C2CCCC1CCC2)C(O)(c1ccccc1)c1ccccc1
inactive: 786-0 renal > 100 µM | A498 renal > 100 µM | A549 NSCLC > 100 µM | ACHN renal > 100 µM | BT-549 breast > 100 µM | CAKI-1 renal > 100 µM | CCRF-CEM leukemia > 100 µM | COLO 205 colon > 100 µM | DU-145 prostate > 100 µM | EKVX NSCLC > 100 µM | HCT-116 colon > 100 µM | HCT-15 colon > 100 µM | HL-60(TB) leukemia > 100 µM | HOP-62 NSCLC > 100 µM | HOP-92 NSCLC > 100 µM | HS 578T breast > 100 µM | HT29 colon > 100 µM | IGROV1 ovarian > 100 µM | K-562 leukemia > 100 µM | LOX IMVI melanoma > 100 µM | M14 melanoma > 100 µM | MALME-3M melanoma > 100 µM | MCF7 breast > 100 µM | MDA-MB-231 breast > 100 µM | MDA-MB-435 = > 100 µM | MDA-N > 100 µM | MOLT-4 leukemia > 100 µM | NCI-H226 lung > 100 µM | NCI-H23 lung > 100 µM | NCI-H322M lung > 100 µM | NCI-H522 lung > 100 µM | NCI/ADR-RES ovarian > 100 µM | OVCAR-3 ovarian > 100 µM | OVCAR-4 ovarian > 100 µM | OVCAR-5 ovarian > 100 µM | OVCAR-8 ovarian > 100 µM | PC-3 prostate > 100 µM | RPMI-8226 leukemia > 100 µM | RXF 393 renal > 100 µM | SF-268 CNS > 100 µM | SF-295 CNS > 100 µM | SF-539 CNS > 100 µM | SK-MEL-2 melanoma > 100 µM | SK-MEL-28 melanoma > 100 µM | SK-MEL-5 melanoma > 100 µM | SK-OV-3 ovarian > 100 µM | SN12C renal > 100 µM | SNB-19 CNS > 100 µM | SNB-75 CNS > 100 µM | SR leukemia > 100 µM | T-47D breast > 100 µM | TK-10 renal > 100 µM | U251 CNS > 100 µM | UACC-257 melanoma > 100 µM | UACC-62 melanoma > 100 µM | UO-31 renal > 100 µM
